Shown are actives, neighbours in structure and some others; about 4.2% of the full set was active somewhere.
MC4R antag cAMP = antagonists of human melanocortin 4 receptor (MC4R). MC4R-expressing cells, MTII-stimulated cAMP, LANCE TR-FRET. inhibition, % at 6.5 µM. 0.48% of 360,000 active. AID 540295;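 active = inhibition above its plate's cutoff, the mean of tested wells on that plate plus 3 SD, cut at about 29% in these data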
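System: U2OS-MC4R stable cell line; Technique: Eu-cAMP/anti-cAMP TR-FRET, emission 671 nm; Repeats: single well per compound; Also added: Melanotan II; Dosing: one concentration, 6.5 µM nominal; Schedule: 30-min compound, 1-h challenge, 1-h detection, room temperature.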
NALP1 yeast inh = blocks the NALP1 inflammasome reconstituted in yeast | S. cerevisiae NALP1/ASC/caspase-1 growth, X-gal OD620, 72 h | inhibition, % at 10 µM | 0.61% of 280,000 active; in the data active = inhibition mostly above about 24%, no sharp cut-off; inactive = mostly below about 32%
MC4R barr agon = activates human MC4R beta-arrestin recruitment. AID 540308. P32245. activation, % at 8.9 µM. U2OS MC4R beta-arrestin complementation, luminescence; percent of melanotan II response, DMSO zero. 0.98% of 360,000 active;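 active = activation above a per-plate cutoff, the mean activation of sample wells on that plate plus 3 SD, cut at about 8% in these data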
UUG fidelity = alters start codon recognition fidelity in yeast | S. cerevisiae UUG-firefly luciferase reporter, luminescence/redox ratio | activity score, % at 18.7 µM | hit rate 0.13% among 350,000 | AID 602363;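 active means replicate mean at a twofold rise or more, about +100% in these data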;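 further: firefly luciferase made from a UUG start codon reports start codon fidelity; reporter light over untreated wells divided by growth signal over untreated wells; some hits fall short of that in this replicate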
HDAC3 inhib = human HDAC3 inhibition. O15379. recombinant HDAC3, fluorogenic peptide/trypsin coupled, fluorescence. inhibition, % at 8.3 µM. 0.15% of 320,000 active. AID 2718; in the data active = inhibition above about 26%, passing the limit was not always enough
ALR inh = human ALR oxidase inhibition via reduced H2O2 | inhibition, % (concentration not given with the values) | purified ALR, DTT oxidation, H2O2 HRP-luminol luminescence | hit rate 3.8% among 290,000;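 active = mean and each replicate at 75% or more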;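 also: stock transfer was 7.5 nL into about 7.5 µL; 0% = neutral wells and 100% = wells with inactivated enzyme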
A number is an active result; . = inactive; / = not tested or not shown.

SMILES	MC4R antag cAMP	NALP1 yeast inh	MC4R barr agon	UUG fidelity	HDAC3 inhib	ALR inh
COCCNC(=O)CCc1c(C)nc2c(-c3ccc(F)cc3)c(C)nn2c1C	.	36	.	.	.	/
O=C(NCC[C@@H]1CC[C@H](NC(=O)c2ccc3c(c2)OCO3)[C@H](CO)O1)Nc1cc(F)ccc1F	/	/	/	.	/	/
CC(C)CC#Cc1cnc2c(c1)C(=O)N([C@H](C)CO)C[C@H](C)[C@H](CN(C)S(C)(=O)=O)O2	/	/	/	.	/	/
CCNC(=O)C[C@H]1C=C[C@H](NC(=O)NC2CCCCC2)[C@@H](CO)O1	/	/	/	.	/	/
O=C(c1ccc(=O)oc1)N1CCCc2ccccc21	.	.	.	.	.	89
Cc1noc(C)c1NC(=O)N(C)C[C@H]1Oc2c(NC(=O)c3ccc(-c4nccs4)cc3)cccc2C(=O)N([C@@H](C)CO)C[C@H]1C	/	/	/	.	/	/
CCOC(=O)c1c(-c2ccccc2)nc2c(C)cccn12	.	.	.	.	.	/
CCOC(=O)c1c(-c2ccccc2)nc2ccccn12	.	87	.	.	.	.
Cc1ccc2nc(N(CCCN(C)C)C(=O)c3cc(-c4cccs4)nc4ccccc34)sc2c1	.	.	9.2	.	.	.
Cc1cc(C)c2nc(N(CCCN(C)C)C(=O)c3ccc4c(c3)CCCC4)sc2c1	/	/	/	/	.	.
CN(C)CCCN(C(=O)c1cc(-c2cccs2)nc2ccccc12)c1nc2c(F)cccc2s1	.	.	.	.	.	.
CN(C)CCCN(C(=O)COc1ccc(Cl)cc1)c1nc2ccc(F)cc2s1	.	.	.	.	.	.
Cc1ccc2nc(N(CCCN(C)C)C(=O)c3ccc4c(c3)CCCC4)sc2c1	.	52	.	.	.	.
Cc1ccc2nc(N(CCCN(C)C)C(=O)COc3ccc(Cl)cc3)sc2c1	.	.	8.8	/	.	.
Cc1ccc2nc(N(CCN(C)C)C(=O)c3cc(Cl)sc3Cl)sc2c1	.	.	.	.	.	96
C[C@@H]1CN([C@H](C)CO)C(=O)Cc2cc(NC(=O)Cn3cnnn3)ccc2O[C@H]1CN(C)Cc1ccc(-c2ccccc2)cc1	/	/	/	.	/	/
COc1ccc(S(=O)(=O)Nc2ccc3c(c2)C(=O)N([C@@H](C)CO)C[C@H](C)[C@H](CN(C)Cc2ccc(C(F)(F)F)cc2)OCCCC[C@H](C)O3)cc1	/	/	/	.	/	/
O=C(N=C1SC2CS(=O)(=O)CC2N1c1ccc(Cl)cc1)C1CCCO1 (stereo unspecified)	.	.	.	/	.	.
CCN(CC)c1ccc(N2C(=NC(=O)C3CCCO3)SC3CS(=O)(=O)CC32)cc1 (stereo unspecified)	.	.	.	/	.	99
CCC(=O)N(C)C[C@H]1Oc2cc(-c3ccc(OC)cc3)ccc2S(=O)(=O)N([C@H](C)CO)C[C@@H]1C	/	/	/	.	/	/
CN1c2ccc(-c3ccccc3F)cc2[C@H]2[C@H](CCN2S(=O)(=O)c2ccc(F)cc2)[C@H]1CO	/	/	/	.	/	/
Cc1ccc(S(=O)(=O)n2cnc(C)c2)cc1	.	.	.	.	.	.
COc1ccc2cc(S(=O)(=O)n3cnc(C)c3)ccc2c1	.	.	.	.	.	98
COc1cccc2c3c(c(=O)[nH]c12)CCC(C)(C)O3	.	.	.	.	.	98
COc1cccc2c3c(c(=O)[nH]c12)CC(C)(C)O3	.	/	.	.	.	.
SMILES	MC4R antag cAMP	NALP1 yeast inh	MC4R barr agon	UUG fidelity	HDAC3 inhib	ALR inh
C=CCNc1nc2c3ccccc3n(C(C)=O)c2s1	.	.	.	.	.	96
O=C(CN1CCN(c2ccc(O)cc2)CC1)N(C1CC1)C1CCS(=O)(=O)C1 (stereo unspecified)	.	/	.	.	.	99
CN1C(=O)/C(=C/c2cccc([N+](=O)[O-])c2)C(=O)N1c1ccccc1	.	.	.	.	.	98
C[C@@H]1CN([C@@H](C)CO)C(=O)Cc2cc(NC(=O)CCC(F)(F)F)ccc2O[C@H]1CN(C)Cc1ccc(Cl)c(Cl)c1	/	/	/	.	/	/
Cc1oc2c(O)c(O)ccc2c(=O)c1-c1ccccc1	.	.	.	.	.	99
Cc1oc2cc(O)cc(C)c2c(=O)c1-c1cnn(-c2ccccc2)c1	.	.	.	.	.	/
Cc1oc2c(O)c(O)ccc2c(=O)c1-c1cnn(-c2ccccc2)c1	.	.	.	.	.	100
Cc1oc2c(CN3CCCCC3C)c(O)ccc2c(=O)c1-c1ccccc1 (stereo unspecified)	.	.	.	.	.	.
Cc1oc2c(CN3CCCC3)c(O)ccc2c(=O)c1-c1ccc(Br)cc1	.	.	.	.	.	.
Cc1oc2c(O)c(O)ccc2c(=O)c1-c1ccc(Cl)cc1	.	.	.	.	.	99
CNC[C@@H]1OCCCC[C@@H](C)Oc2ccc(NC(=O)c3ccncc3)cc2C(=O)N([C@H](C)CO)C[C@H]1C	/	/	/	.	/	/
CC(=O)N1C(C(=O)O)CSC1c1ccc(C)cc1 (stereo unspecified)	.	42	.	.	.	.
COc1ccc(CNC(=O)C2CSC(c3ccc(OC)cc3)N2C(C)=O)cc1 (stereo unspecified)	.	.	.	.	.	85
COc1ccc(C2SCC(C(=O)O)N2C(C)=O)cc1 (stereo unspecified)	.	.	.	.	.	.
O=C(C[C@H]1CC[C@H]2[C@@H](COC[C@@H](O)CN2Cc2nccs2)O1)NCc1ccccc1F	/	/	/	.	/	/
Cc1[nH]c2ccccc2c1C(c1ccccn1)N1CCC(C(N)=O)CC1 (stereo unspecified)	.	.	.	/	.	98
Cc1[nH]c2ccccc2c1C(c1ccncc1)N1CCC(C)CC1 (stereo unspecified)	.	.	.	/	.	97
Cc1[nH]c2ccccc2c1C(c1ccncc1)N1CCN(c2ccccn2)CC1 (stereo unspecified)	.	.	.	.	.	.
CO[C@H]1CN(C)C(=O)c2cc(NC(=O)Nc3ccccc3)ccc2OC[C@H](C)N(C(C)=O)C[C@H]1C	/	/	/	.	/	/
COc1ccc(S(=O)(=O)N(C)C[C@@H]2OCCCC[C@@H](C)Oc3ccc(NC(=O)CCC(F)(F)F)cc3C(=O)N([C@H](C)CO)C[C@@H]2C)cc1	/	/	/	.	/	/
C[C@@H]1CC=C[C@H]2[C@H]1C(=O)N(Cc1ccccc1)[C@H]2c1ccc(F)c(-c2ccc(N(C)C)cc2)c1	.	.	.	.	.	/
CN1C(=O)C2C(c3ccc(N(C)C)cc3)NN(Cc3ccccc3)C2C1=O (stereo unspecified)	.	.	.	.	.	98
O=C(NC1CCCCC1)N[C@H]1CC[C@H](CC(=O)N2CCOCC2)O[C@H]1CO	/	/	/	.	/	/
C/C=C/c1ccc2c(c1)O[C@@H](CN(C)C(=O)Cc1ccccc1)[C@@H](C)CN([C@@H](C)CO)S2(=O)=O	/	/	/	.	/	/
CC(=O)N1CCN(c2ccc(Nc3nc(C)nc4c3oc3ccccc34)cc2)CC1	.	/	.	.	.	96
COc1ccc(CCNC(=O)CN2CCCc3ccccc32)cc1OC	.	.	.	.	.	.

Assay outcomes deposited in PubChem by several laboratories.
